Values of other authors, collected in patent publication US10874685B2, “Pancreatic cancer therapy and diagnosis” (Deutsches Krebsforschungszentrum Stiftung des Öffentlichen …, priority 2014, dated 2020).

Tested on: pituitary tumor cells
Details: cited from earlier work

In the case of `CCCN1CCC[C@@H]2Cc3n[nH]cc3C[C@H]21` [quinpirole], the cancer cell viability is given as “decreased significantly”.
